Earlier results, collected in patent US8829187B1.

System: rabbit fetuses
Conditions: rabbit fetuses under hypoxic conditions

SMILES: Cc1cc(N)nc(C[C@@H]2CNC[C@@H]2OCCNCCc2cccc(F)c2)c1
- neurological damage to rabbit fetuses: remarkable reduction in neurological damage
